From patent publication EP4840852A1, “DIPHENYLTRIAZINE COMPOUND, PREPARATION METHOD THEREFOR AND USE THEREOF” (dated 2026)
pEC50, pIC50: −log10 of the molar value. Where “and” joins values, the source holds several entries; their conditions need not be identical. Identical values can stand only once. Marks after values point to notes of the source that are not given here.

Chains of the proteins cited; added tags and fusions are not shown.
UniProt P34995, whole entry: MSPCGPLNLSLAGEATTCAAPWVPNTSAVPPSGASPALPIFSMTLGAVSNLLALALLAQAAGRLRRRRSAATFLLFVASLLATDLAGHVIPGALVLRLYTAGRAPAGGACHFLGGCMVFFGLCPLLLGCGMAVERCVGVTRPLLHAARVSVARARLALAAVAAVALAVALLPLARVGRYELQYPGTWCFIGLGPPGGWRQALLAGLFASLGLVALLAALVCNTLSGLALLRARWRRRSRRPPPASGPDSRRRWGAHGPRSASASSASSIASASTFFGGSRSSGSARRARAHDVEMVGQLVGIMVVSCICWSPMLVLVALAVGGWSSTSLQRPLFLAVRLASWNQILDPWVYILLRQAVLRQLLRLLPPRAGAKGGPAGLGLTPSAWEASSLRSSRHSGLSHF
UniProt P43115, whole entry: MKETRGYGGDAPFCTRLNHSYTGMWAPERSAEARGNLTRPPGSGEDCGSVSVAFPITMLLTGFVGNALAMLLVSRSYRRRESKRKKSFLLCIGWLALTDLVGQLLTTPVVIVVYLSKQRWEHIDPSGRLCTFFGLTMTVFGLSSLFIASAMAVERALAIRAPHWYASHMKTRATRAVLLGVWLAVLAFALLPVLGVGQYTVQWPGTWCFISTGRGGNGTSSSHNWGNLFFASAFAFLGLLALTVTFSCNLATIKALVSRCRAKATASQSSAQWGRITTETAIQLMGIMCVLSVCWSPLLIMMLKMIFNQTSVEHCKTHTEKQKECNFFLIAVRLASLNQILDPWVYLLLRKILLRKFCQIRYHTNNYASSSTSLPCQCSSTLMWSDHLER
UniProt Q13258, whole entry: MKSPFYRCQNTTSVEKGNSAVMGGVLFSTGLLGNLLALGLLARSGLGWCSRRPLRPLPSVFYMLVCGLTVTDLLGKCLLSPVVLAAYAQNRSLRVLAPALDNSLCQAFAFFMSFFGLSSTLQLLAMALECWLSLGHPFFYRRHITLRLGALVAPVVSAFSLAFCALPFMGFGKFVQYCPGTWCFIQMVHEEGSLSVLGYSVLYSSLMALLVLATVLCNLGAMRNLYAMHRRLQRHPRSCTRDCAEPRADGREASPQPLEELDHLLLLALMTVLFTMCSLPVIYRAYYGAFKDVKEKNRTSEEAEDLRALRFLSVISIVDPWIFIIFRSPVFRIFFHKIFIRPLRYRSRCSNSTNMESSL
UniProt P43119, whole entry: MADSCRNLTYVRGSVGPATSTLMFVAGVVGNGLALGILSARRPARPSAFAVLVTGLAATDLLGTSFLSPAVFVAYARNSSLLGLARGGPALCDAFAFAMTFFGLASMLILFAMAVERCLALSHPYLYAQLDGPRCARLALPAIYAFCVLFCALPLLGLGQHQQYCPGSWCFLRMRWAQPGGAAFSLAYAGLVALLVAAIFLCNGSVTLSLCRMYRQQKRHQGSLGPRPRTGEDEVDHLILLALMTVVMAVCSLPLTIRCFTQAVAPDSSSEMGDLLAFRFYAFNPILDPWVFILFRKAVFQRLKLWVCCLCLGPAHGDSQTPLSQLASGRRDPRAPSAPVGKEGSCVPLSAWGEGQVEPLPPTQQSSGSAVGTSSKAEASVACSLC
UniProt P43088, whole entry: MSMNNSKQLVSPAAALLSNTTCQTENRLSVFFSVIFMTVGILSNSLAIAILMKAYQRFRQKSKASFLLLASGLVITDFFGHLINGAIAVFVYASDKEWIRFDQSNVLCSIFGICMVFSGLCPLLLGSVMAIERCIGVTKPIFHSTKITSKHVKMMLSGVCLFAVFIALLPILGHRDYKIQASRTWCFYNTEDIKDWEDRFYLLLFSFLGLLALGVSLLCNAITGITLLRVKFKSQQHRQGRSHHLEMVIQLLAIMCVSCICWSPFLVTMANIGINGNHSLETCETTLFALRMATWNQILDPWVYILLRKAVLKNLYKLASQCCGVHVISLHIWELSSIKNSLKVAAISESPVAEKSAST
UniProt P35408, whole entry: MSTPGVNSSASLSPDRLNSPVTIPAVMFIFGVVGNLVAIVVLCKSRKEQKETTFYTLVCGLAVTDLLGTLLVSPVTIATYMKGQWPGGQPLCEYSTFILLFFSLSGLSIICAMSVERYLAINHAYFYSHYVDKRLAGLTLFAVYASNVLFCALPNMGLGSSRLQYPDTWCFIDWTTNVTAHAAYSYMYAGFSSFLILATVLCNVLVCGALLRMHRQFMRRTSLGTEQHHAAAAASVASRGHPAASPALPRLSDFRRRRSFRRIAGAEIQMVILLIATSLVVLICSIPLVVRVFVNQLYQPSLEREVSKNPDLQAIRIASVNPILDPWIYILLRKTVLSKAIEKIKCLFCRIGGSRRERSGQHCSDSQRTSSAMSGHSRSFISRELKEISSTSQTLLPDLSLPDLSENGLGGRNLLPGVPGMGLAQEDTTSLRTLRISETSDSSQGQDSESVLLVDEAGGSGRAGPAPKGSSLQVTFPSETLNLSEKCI
UniProt P43116, whole entry: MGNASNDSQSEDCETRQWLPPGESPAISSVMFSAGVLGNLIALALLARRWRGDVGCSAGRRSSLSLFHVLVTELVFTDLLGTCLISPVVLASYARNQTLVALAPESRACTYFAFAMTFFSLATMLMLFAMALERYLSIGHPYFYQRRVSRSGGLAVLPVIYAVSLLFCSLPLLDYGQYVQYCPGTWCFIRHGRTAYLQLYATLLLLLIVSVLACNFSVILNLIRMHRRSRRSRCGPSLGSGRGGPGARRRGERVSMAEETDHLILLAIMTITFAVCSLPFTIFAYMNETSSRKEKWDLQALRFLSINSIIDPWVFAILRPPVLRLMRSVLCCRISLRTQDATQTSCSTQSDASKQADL
UniProt P21731, whole entry: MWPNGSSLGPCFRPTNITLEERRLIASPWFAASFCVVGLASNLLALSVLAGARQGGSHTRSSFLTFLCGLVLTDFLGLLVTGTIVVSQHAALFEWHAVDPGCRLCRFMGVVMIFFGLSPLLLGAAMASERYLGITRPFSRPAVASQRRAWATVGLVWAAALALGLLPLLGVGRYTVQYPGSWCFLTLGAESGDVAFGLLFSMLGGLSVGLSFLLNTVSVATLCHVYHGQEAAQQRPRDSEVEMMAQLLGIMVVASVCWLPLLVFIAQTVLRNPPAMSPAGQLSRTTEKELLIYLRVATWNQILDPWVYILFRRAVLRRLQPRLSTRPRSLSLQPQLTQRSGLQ

Columns and labels:
[1] = tested on: Monocrotaline (MCT)-Induced Pulmonary Arterial Hypertension Rat Model; experiment: Monocrotaline (MCT)-induced pulmonary arterial hypertension rat model
TA100 strain = experiment: Bacterial reverse mutation assay with 6-well plate, TA100
[2] = tested on: Human pulmonary arterial smooth muscle cells (HPASMCs); experiment: PDGF-induced proliferation of pulmonary arterial smooth muscle cells (CellTiter-Glo); details: read-out: IC50 for inhibiting PDGF-induced proliferation of pulmonary arterial smooth muscle cells; 20 ng/mL hPDGF-BB; CTG assay
EP1 = EP1 (Homo sapiens, UniProt P34995); experiment: Functional activity (HTRF cAMP / HTRF IP1) in cell line stably expressing EP1 receptor; details: read-out: absolute EC50; agonistic activation on EP1 target; initial test concentration 10000 nM
EP3 = EP3 (Homo sapiens, UniProt P43115); experiment: Functional activity (HTRF cAMP / HTRF IP1) in cell line stably expressing EP3 receptor; details: read-out: absolute EC50; agonistic activation on EP3 target; initial test concentration 10000 nM
DP = DP (Homo sapiens, UniProt Q13258); experiment: Functional activity (HTRF cAMP / HTRF IP1) in cell line stably expressing DP receptor; details: read-out: absolute EC50; agonistic activation on DP target; initial test concentration 10000 nM
IP = IP (Homo sapiens, UniProt P43119); experiment: Functional activity (HTRF cAMP / HTRF IP1) in cell line stably expressing IP receptor; details: read-out: absolute EC50; agonistic activation on IP target; initial test concentration 10000 nM
FP = FP (Homo sapiens, UniProt P43088); experiment: Functional activity (HTRF cAMP / HTRF IP1) in cell line stably expressing FP receptor; details: read-out: absolute EC50; agonistic activation on FP target; initial test concentration 10000 nM
EP4 = EP4 (Homo sapiens, UniProt P35408); experiment: Functional activity (HTRF cAMP / HTRF IP1) in cell line stably expressing EP4 receptor; details: read-out: absolute EC50; agonistic activation on EP4 target; initial test concentration 10000 nM
EP2 = EP2 (Homo sapiens, UniProt P43116); experiment: Functional activity (HTRF cAMP / HTRF IP1) in cell line stably expressing EP2 receptor; details: read-out: absolute EC50; agonistic activation on EP2 target; initial test concentration 10000 nM
TA98 strain = experiment: Bacterial reverse mutation assay with 6-well plate, TA98
TP = TP (Homo sapiens, UniProt P21731); experiment: Functional activity (HTRF cAMP / HTRF IP1) in cell line stably expressing TP receptor; details: read-out: absolute EC50; agonistic activation on TP target; initial test concentration 10000 nM
[3] = TA100+S9, 125 µg/well (Table 9)
[4] = TA100+S9, 250 µg/well (Table 9)
[5] = TA100-S9, 125 µg/well (Table 9)
[6] = TA100-S9, 250 µg/well (Table 9)

## CC(C)N(CCCCOCC(=O)NS(C)(=O)=O)c1cnc(-c2ccccc2)c(-c2ccccc2)n1
[1]; 1 mg/kg, compared with model control group
  reduction of right ventricular hypertrophy index: 26%
[1]; HE staining, Compound A 0.15, 0.5, 1.5 mg/kg, Selexipag 1 mg/kg, twice daily 19 days
  effect on lung tissue lesions: a certain improving effect
[1]; positive control 1 mg/kg oral gavage twice daily, 19 days
  RVSP: 43.16±2.66 mmHg
[1]; positive control 1 mg/kg oral gavage twice daily, D1
  Body Weight: 295.3 ± 19.2 g
[1]; positive control 1 mg/kg oral gavage twice daily, D5
  Body Weight: 333.5 ± 18.1 g
[1]; positive control 1 mg/kg oral gavage twice daily, D8
  Body Weight: 355.0±21.0* * g
[1]; positive control 1 mg/kg oral gavage twice daily, D12
  Body Weight: 376.7±25.0* ** g
[1]; positive control 1 mg/kg oral gavage twice daily, D15
  Body Weight: 383.5 ± 22.8 g
[1]; positive control 1 mg/kg oral gavage twice daily, D19
  Body Weight: 408.2±26.6* * g
[1]; positive control 1 mg/kg oral gavage twice daily, D20
  Body Weight: 418.9±28.2* * g
[1]; positive control 1 mg/kg, compared with model control group
  maximum reduction of RVSP: 33%
[1]; pulmonary artery, positive control 1 mg/kg oral gavage twice daily, 19 days
  Medial Thickness Percentage: 0.36±0.07 %
[1]; right ventricular hypertrophy index, positive control 1 mg/kg oral gavage twice daily, 19 days
  RV/(LV+S): 33.85±8.32 %
TA100 strain; TA100+S9, 8 µg/well (Table 9)
  Background lawn: T0
  Reverse mutation colony Mean: 29.0
  Reverse mutation colony Number per well: 28 and 30
TA100 strain; TA100+S9, 16 µg/well (Table 9)
  Background lawn: T0
  Reverse mutation colony Mean: 28 .
  Reverse mutation colony Number per well: 29 and 27
TA100 strain; TA100+S9, 31 µg/well (Table 9)
  Background lawn: T0
  Reverse mutation colony Mean: 25.0
  Reverse mutation colony Number per well: 24 and 26
TA100 strain; TA100+S9, 63 µg/well (Table 9)
  Background lawn: T0
  Reverse mutation colony Mean: 24.0
  Reverse mutation colony Number per well: 25 and 23
TA100 strain; [3]
  Background lawn: T0
  Reverse mutation colony Mean: 19.5
  Reverse mutation colony Number per well: 20 and 19
TA100 strain; [4]
  Background lawn: T1
  Reverse mutation colony Mean: 17.5
  Reverse mutation colony Number per well: 18 and 17
TA100 strain; TA100+S9, 500 µg/well (Table 9)
  Background lawn: T3
TA100 strain; TA100+S9, 1000 µg/well (Table 9)
  Background lawn: T3
TA100 strain; TA100-S9, 8 µg/well (Table 9)
  Background lawn: T0
  Reverse mutation colony Mean: 29.5
  Reverse mutation colony Number per well: 30 and 29
TA100 strain; TA100-S9, 16 µg/well (Table 9)
  Background lawn: T0
  Reverse mutation colony Mean: 28.0
  Reverse mutation colony Number per well: 29 and 27
TA100 strain; TA100-S9, 31 µg/well (Table 9)
  Background lawn: T0
  Reverse mutation colony Mean: 27.5
  Reverse mutation colony Number per well: 27 and 28
TA100 strain; TA100-S9, 63 µg/well (Table 9)
  Background lawn: T0
  Reverse mutation colony Mean: 24.5
  Reverse mutation colony Number per well: 24 and 25
TA100 strain; [5]
  Background lawn: T0
  Reverse mutation colony Mean: 24.0
  Reverse mutation colony Number per well: 23 and 25
TA100 strain; [6]
  Background lawn: T1
  Reverse mutation colony Mean: 19.0
  Reverse mutation colony Number per well: 20 and 18
TA100 strain; TA100-S9, 500 µg/well (Table 9)
  Background lawn: T3
TA100 strain; TA100-S9, 1000 µg/well (Table 9)
  Background lawn: T4
TA100 strain; TA100 strain, ±S9
  final concentration at which a reduction in background lawn was observed: not less than 250 µg per well
  final concentration at which non-interfering precipitate was observed: not less than 250 µg per well
TA100 strain; TA100 strain, ±S9, colonies did not reach twice negative control
  genotoxicity test result: negative
[2]
  pIC50: 4.73
EP1
  pEC50: < 5.00
EP3
  pEC50: < 5.00
DP
  pEC50: 5.56
IP
  pEC50: 9.57
FP
  pEC50: < 5.00
EP4
  pEC50: < 5.00
EP2
  pEC50: 5.01
TA98 strain; TA98+S9, 8 µg/well (Table 8)
  Background lawn: T0
  Reverse mutation colony Mean: 11
  Reverse mutation colony Number per well: 12 and 10
TA98 strain; TA98+S9, 16 µg/well (Table 8)
  Background lawn: T0
  Reverse mutation colony Mean: 10
  Reverse mutation colony Number per well: 9 and 11
TA98 strain; TA98+S9, 31 µg/well (Table 8)
  Background lawn: T0
  Reverse mutation colony Mean: 9
  Reverse mutation colony Number per well: 8 and 10
TA98 strain; TA98+S9, 63 µg/well (Table 8)
  Background lawn: T0
  Reverse mutation colony Mean: 8.5
  Reverse mutation colony Number per well: 8 and 9
TA98 strain; TA98+S9, 125 µg/well (Table 8)
  Background lawn: T0
  Reverse mutation colony Mean: 6.5
  Reverse mutation colony Number per well: 7 and 6
TA98 strain; TA98+S9, 250 µg/well (Table 8)
  Background lawn: T1
  Reverse mutation colony Mean: 5.5
  Reverse mutation colony Number per well: 6 and 5
TA98 strain; TA98+S9, 500 µg/well (Table 8)
  Background lawn: T3
TA98 strain; TA98+S9, 1000 µg/well (Table 8)
  Background lawn: T4
TA98 strain; TA98-S9, 8 µg/well (Table 8)
  Background lawn: T0
  Reverse mutation colony Mean: 5.5
  Reverse mutation colony Number per well: 5 and 6
TA98 strain; TA98-S9, 16 µg/well (Table 8)
  Background lawn: T0
  Reverse mutation colony Mean: 4.5
  Reverse mutation colony Number per well: 4 and 5
TA98 strain; TA98-S9, 31 µg/well (Table 8)
  Background lawn: T0
  Reverse mutation colony Mean: 5.5
  Reverse mutation colony Number per well: 7 and 4
TA98 strain; TA98-S9, 63 µg/well (Table 8)
  Background lawn: T0
  Reverse mutation colony Mean: 5.5
  Reverse mutation colony Number per well: 6 and 5
TA98 strain; TA98-S9, 125 µg/well (Table 8)
  Background lawn: T0
  Reverse mutation colony Mean: 4.5
  Reverse mutation colony Number per well: 5 and 4
TA98 strain; TA98-S9, 250 µg/well (Table 8)
  Background lawn: T2
  Reverse mutation colony Mean: 2.5
  Reverse mutation colony Number per well: 3 and 2
TA98 strain; TA98-S9, 500 µg/well (Table 8)
  Background lawn: T3
TA98 strain; TA98-S9, 1000 µg/well (Table 8)
  Background lawn: T4
TA98 strain; TA98 strain, ±S9
  final concentration at which a reduction in background lawn was observed: not less than 250 µg per well
  final concentration at which non-interfering precipitate was observed: not less than 250 µg per well
TA98 strain; TA98 strain, ±S9, colonies did not reach twice negative control
  genotoxicity test result: negative
TP
  pEC50: < 5.00
